Legend:
OGG1 = OGG1 (Homo sapiens (Human), UniProt O15527); assay: In vitro OGG1 activity assay; format: biochemical; details: 800 pM OGG1 enzyme, 2 nM human APEX1, 10 nM 8-oxoA:C substrate
MLE12 cells = assay: Cell viability assay in MLE12 cells (resazurin); details: read-out: Cell Viability (IC50), TNF-α 20 ng/ml, resazurin added after 24 hours culture
CCL2 = assay: Mouse CCL2 assay in MLE12 cells; details: read-out: CCL2 (EC50), TNF-α 20 ng/ml, supernatant after 30 hours, HTRF

Protein sequences, listed by entry. Tags and fused reporters are not part of them.
UniProt O15527, whole entry: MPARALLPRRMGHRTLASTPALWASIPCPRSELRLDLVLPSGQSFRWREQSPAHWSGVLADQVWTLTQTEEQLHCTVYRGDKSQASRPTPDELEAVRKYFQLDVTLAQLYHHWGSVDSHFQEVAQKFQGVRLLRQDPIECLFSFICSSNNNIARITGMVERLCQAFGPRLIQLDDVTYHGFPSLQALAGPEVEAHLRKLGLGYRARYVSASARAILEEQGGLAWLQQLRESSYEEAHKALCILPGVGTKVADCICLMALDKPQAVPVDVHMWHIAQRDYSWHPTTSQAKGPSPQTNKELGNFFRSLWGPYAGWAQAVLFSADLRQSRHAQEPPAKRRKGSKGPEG

| Compound | IC50 (OGG1) [µM] | IC50 (MLE12 cells) [µM] | EC50 (CCL2) [µM] |
| --- | --- | --- | --- |
| COc1cc(NC(=O)[C@H]2CC[C@@H](n3c(=O)[nH]c4c(C(=O)NCCC(N)=O)cccc43)CC2)ccc1C (relative stereo) | 0.00577 |  |  |
| COc1cc(NC(=O)[C@H]2CC[C@@H](n3c(=O)[nH]c4c(C(=O)N5CCC(N(C)C)CC5)cccc43)CC2)ccc1C (relative stereo) | 0.14 | 17.3 | 31.2 |
